By UniProt entry, the sequences of proteins in these tests, tags left out.
UniProt P25103, whole entry: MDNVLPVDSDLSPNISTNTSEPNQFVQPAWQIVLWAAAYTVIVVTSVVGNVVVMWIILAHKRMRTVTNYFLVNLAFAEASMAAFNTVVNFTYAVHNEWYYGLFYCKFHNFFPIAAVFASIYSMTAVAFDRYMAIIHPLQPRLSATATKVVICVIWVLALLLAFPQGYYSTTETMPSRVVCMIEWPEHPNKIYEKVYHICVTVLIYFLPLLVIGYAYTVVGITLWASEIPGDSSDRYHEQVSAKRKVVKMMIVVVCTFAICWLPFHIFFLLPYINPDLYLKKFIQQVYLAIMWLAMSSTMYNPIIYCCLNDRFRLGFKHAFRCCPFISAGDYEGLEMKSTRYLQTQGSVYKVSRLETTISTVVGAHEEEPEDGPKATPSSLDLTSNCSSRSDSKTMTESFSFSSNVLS

According to patent US20070149570A1, “Piperidine derivative and use thereof” (priority 2005, published 2007):

Target: substance P receptors (Homo sapiens, UniProt P25103)
Experiment: Radioligand receptor binding inhibitory activity using receptor from human lymphoblast cells (IM-9), 125I-BHSP
Settings: read-out: IC50 (concentration necessary to cause 50% inhibition), radioligand 125I-BHSP, 25° C., 30 minutes, tested form: HCl

CC(=O)NCC(=O)N1CCC(NCc2cc(-c3ccc(C#N)cc3)ccc2OC(F)(F)F)C(c2ccccc2)C1 (stereo not shown)
IC50: 21 pM
